What was measured:
[1] = target: Delta-type opioid receptor (Homo sapiens, UniProt P41143)
Rattus norvegicus [2] = species on record: Rattus norvegicus; experiment: animal or person; conditions: Wistar, sc
[3] = target: Kappa-type opioid receptor (Homo sapiens, UniProt P41145)
Rattus norvegicus [4] = experiment: Inhibition of saccharin intake in Wistar rat at 6.25 mg/kg, sc by saccharin-self administration test; type: functional; set-up: scale not given: the % may be the effect or the level left; conditions: route subcutaneous
Nociceptin receptor = Nociceptin receptor (Homo sapiens, UniProt P41146); experiment: Activity at NOP expressed in HEK293 cells assessed as stimulation of [35S]GTPgammaS binding relative to basal level; type: functional, cell-based

Protein sequences, listed by entry. Tags and fused reporters are not part of them. Lines headed by an entry give the natural chain unless they say otherwise; changes in a name come on top.
UniProt P41143, whole entry: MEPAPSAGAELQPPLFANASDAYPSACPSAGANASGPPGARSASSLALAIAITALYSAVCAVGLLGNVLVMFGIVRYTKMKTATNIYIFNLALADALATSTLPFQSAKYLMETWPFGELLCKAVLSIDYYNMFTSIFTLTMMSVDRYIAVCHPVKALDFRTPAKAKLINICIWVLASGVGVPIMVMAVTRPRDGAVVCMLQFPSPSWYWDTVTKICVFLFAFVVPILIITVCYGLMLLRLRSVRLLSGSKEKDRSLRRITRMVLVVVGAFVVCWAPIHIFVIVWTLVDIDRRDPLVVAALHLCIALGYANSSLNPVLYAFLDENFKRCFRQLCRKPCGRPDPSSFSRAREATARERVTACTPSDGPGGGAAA
UniProt P41145: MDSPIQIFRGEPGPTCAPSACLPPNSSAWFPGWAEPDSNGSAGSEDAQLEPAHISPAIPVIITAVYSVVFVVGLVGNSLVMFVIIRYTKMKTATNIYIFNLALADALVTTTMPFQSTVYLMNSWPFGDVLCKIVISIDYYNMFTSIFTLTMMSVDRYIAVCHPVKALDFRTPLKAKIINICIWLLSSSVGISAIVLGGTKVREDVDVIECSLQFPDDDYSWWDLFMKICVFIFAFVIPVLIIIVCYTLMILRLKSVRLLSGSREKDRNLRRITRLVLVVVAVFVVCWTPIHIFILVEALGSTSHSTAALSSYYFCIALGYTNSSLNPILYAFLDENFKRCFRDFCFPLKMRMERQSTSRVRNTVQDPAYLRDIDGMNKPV
UniProt P41146: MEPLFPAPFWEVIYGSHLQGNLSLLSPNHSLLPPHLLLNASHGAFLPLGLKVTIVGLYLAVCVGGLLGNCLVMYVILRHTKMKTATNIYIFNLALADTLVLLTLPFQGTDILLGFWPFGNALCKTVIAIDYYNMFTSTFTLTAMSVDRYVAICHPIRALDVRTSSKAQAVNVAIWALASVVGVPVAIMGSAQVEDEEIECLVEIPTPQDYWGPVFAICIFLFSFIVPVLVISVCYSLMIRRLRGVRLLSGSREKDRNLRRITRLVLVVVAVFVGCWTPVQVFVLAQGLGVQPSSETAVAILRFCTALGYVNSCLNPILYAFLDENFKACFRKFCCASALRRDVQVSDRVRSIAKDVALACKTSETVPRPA

Compound	EC50 [1] [nM]	ED50 (Rattus norvegicus [2]) [mg/kg]	EC50 [3] [nM]	Activity (Rattus norvegicus [4]) [%]	Emax (Nociceptin receptor) [%]
O=C(N[C@@H]1CC[C@@]2(O)[C@H]3Cc4ccc(O)c5c4[C@@]2(CCN3CC2CC2)[C@H]1O5)c1ccc(C(F)(F)F)cc1.O=C(O)C(=O)O	> 10000	0.019	> 10000	23.8	–
O=C(N[C@@H]1CC[C@@]2(O)[C@H]3Cc4ccc(O)c5c4[C@@]2(CCN3CC2CC2)[C@H]1O5)c1ccc(Br)cc1.O=C(O)C(=O)O	–	0.042	–	–	–
O=C(N[C@@H]1CC[C@@]2(O)[C@H]3Cc4ccc(O)c5c4[C@@]2(CCN3CC2CC2)[C@H]1O5)c1ccc(I)cc1.O=C(O)C(=O)O	> 10000	0.038	> 10000	–	–
CC(C)(C)c1ccc(C(=O)N[C@@H]2CC[C@@]3(O)[C@H]4Cc5ccc(O)c6c5[C@@]3(CCN4CC3CC3)[C@H]2O6)cc1.O=C(O)C(=O)O	0.3	0.05	0.4	–	–
O=C(N[C@@H]1CC[C@@]2(O)[C@H]3Cc4ccc(O)c5c4[C@@]2(CCN3CC2CC2)[C@H]1O5)c1ccc(Cl)cc1	–	–	–	–	0
Cc1ccc(C(=O)N[C@@H]2CC[C@@]3(O)[C@H]4Cc5ccc(O)c6c5[C@@]3(CCN4CC3CC3)[C@H]2O6)cc1.O=C(O)C(=O)O	> 10000	0.25	2.4	–	–

— ChEMBL document CHEMBL1152554, “Synthesis and pharmacological evaluation of 6-naltrexamine analogs for alcohol cessation” (Bioorg Med Chem, 2009)
